Data reported in patent US11691981B2, “Heterocyclic compounds, preparation methods therefor, and methods of uses thereof” (INVENTISBIO CO., LTD., priority 2019, dated 2023).

Sequences of proteins named here, by UniProt entry; tags and fusion partners are left off. Residues count along the entry.
UniProt P36897, 34-503 limits assumed: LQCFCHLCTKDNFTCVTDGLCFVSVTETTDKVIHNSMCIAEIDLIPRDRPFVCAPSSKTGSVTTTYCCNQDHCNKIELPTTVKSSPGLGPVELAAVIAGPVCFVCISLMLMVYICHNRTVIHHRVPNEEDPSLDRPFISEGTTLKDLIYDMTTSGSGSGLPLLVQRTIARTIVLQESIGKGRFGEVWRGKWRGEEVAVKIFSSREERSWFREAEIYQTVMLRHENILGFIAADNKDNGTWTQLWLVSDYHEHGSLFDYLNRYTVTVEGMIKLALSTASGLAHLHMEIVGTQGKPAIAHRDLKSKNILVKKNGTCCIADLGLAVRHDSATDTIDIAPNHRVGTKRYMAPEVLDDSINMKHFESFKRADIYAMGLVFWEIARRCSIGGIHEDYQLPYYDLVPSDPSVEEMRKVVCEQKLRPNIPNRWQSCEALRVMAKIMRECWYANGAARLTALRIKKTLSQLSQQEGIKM

Molecular target: TGFβR1 (Homo sapiens (Human), UniProt P36897)
Test: TGFβR1 kinase inhibition assay (ADP-Glo Kinase Assay)
Settings: read-out: TGFβR1 IC50; 40 nM TGFβR1 in 2x enzyme mix, 5.4 μM ATP in 2x substrate mix, 120 min RT

IC50: 51 nM
Structure (SMILES): CC(C)(O)c1cc(Nc2cc(Oc3cn(C4CC4)nc3CNc3ccccc3F)ccn2)ccn1
